Data: PubChem BioAssay (NCI)
Several values for one entry are separate records, joined by “and”; a condition that tells them apart may be missing. Equal entries are not always repeated. Only a part is listed here, and it is no random draw. Activity calls are given as the source filed them. Rule as the data show it: active = growth inhibition above about 70%; inactive = the rest.

Tests used:
[1] = NCI Yeast Anticancer Drug Screen. Data for the rad50 strain (AID 155);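 also: 0% = growth of vehicle-only cultures of the same strain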; conditions: S. cerevisiae rad50 strain growth inhibition; at 50.0 µM; hits give high values
[2] = NCI Yeast Anticancer Drug Screen. Data for the mec2-1 strain (AID 157); conditions: S. cerevisiae mec2-1 strain, at 50.0 µM, hits give high values
[3] = NCI Yeast Anticancer Drug Screen. Data for the sgs1 mgt1 strain (AID 161);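 also: 0% = growth of cultures given vehicle only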; conditions: S. cerevisiae sgs1 mgt1 strain, at 50.0 µM, hits give high values
[4] = NCI Yeast Anticancer Drug Screen. Data for the cln2 rad14 strain (AID 165);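 also: 0% = growth equal to vehicle treated cultures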; conditions: S. cerevisiae cln2 rad14 strain, at 50.0 µM, hits give high values
[5] = NCI Yeast Anticancer Drug Screen. Data for the bub3 strain (AID 167); conditions: S. cerevisiae bub3 mutant strain, at 50.0 µM, hits give high values
[6] = NCI Yeast Anticancer Drug Screen. Data for the mlh1 rad18 strain (AID 175); conditions: S. cerevisiae mlh1 rad18 strain growth inhibition; at 50.0 µM; hits give high values

Measured: growth inhibition

O=[N+]([O-])c1cc([N+](=O)[O-])c(OCC(O)CO)c([N+](=O)[O-])c1 (stereo unspecified)
inactive: [1] 6.65% | [2] 5.3% | [3] 2.2% | [4] -6.5% | [5] -4.65% | [6] 8.9%

[N-]=[N+]=NC(N)=O
inactive: [1] -4.05% | [2] -11.7% | [3] -2.35% | [4] -55.9% | [5] -1.15% | [6] -23.5%

Cc1ccc(CNCCI)cc1C
inactive: [1] 8.55% | [2] 2.5% | [3] 36.5% | [4] -6.35% | [5] 10.1% | [6] 7.5%

NCCC(N)CSP(=O)(O)O (stereo unspecified)
inactive: [1] 6% | [2] -22.2% | [3] -31.1% | [4] -5.3% | [5] -27.7% | [6] -14.4%

CN(C)P(N)(Cl)(c1ccccc1)c1ccccc1
inactive: [1] -1.65% | [2] 1.5% | [3] -9.5% | [4] -11.2% | [5] 11.7% | [6] 1.75%

CCOC(=O)C[n+]1ccccc1/C=C\c1ccccc1
inactive: [1] -11.3% | [2] -2.6% | [3] -3.45% | [4] -29.9% | [5] -14.8% | [6] -3.45%

CC[As](=O)(O)O
inactive: [1] -1.35% | [2] 5.9% | [3] 12.2% | [4] -10% | [5] 0.8% | [6] 1.85%

CC(=O)SCC(Br)C(N)=O (stereo unspecified)
inactive: [1] 25.1% | [2] 11.1% | [3] 15.4% | [4] -14.8% | [5] -0.65% | [6] -5.8%

O=C(CF)Nc1ccc(N(CCCl)CCCl)cc1
inactive: [1] 2.4% | [2] -7.9% | [3] -27.1% | [4] -18.4% | [5] -36.8% | [6] -34.3%

O=c1oc(NCCCl)nc2ccccc12
inactive: [1] -1.05% | [2] 4.4% | [3] -3.65% | [4] -32.3% | [5] 0.7% | [6] -3.3%

Cc1ccc(NC(=S)NP(=O)(Oc2ccccc2)Oc2ccccc2)nc1
inactive: [1] 6.7% | [2] -7.65% | [3] -10.6% | [4] -7.05% | [5] -2.35% | [6] 4.25%

Cc1c([N+](=O)[O-])c(C)c(S(=O)(=O)c2c(C)c([N+](=O)[O-])c(C)c([N+](=O)[O-])c2C)c(C)c1[N+](=O)[O-]
inactive: [1] 43% | [2] -2.95% | [3] -1.55% | [4] 3.55% | [5] 12.2% | [6] 12.3%

C=CCOP(O)OCC=C
inactive: [1] -5.35% | [2] -15.7% | [3] -10.3% | [4] 10.2% | [5] -2.55% | [6] -11.1%

O=[N+]([O-])c1cc(Cl)c(O)c([N+](=O)[O-])c1
inactive: [1] 12.8% and 34.6% | [2] 12.2% and 14.2% | [3] 6.8% and 27.4% | [4] 6.15% and 22.2% | [5] -5.6% and 11.3% | [6] 36.8% and 32.6%

ClC1CCCCC1SCCCC1OCCO1 (stereo unspecified)
inactive: [1] 0.1% | [2] -1.45% | [3] 0.45% | [4] 17.4% | [5] 21.2% | [6] 3%

CCCCCCCCCCCCCC(=O)OCC(COP(=O)(Oc1ccccc1)N(CCCl)CCCl)OC(=O)CCCCCCCCCCCCC (stereo unspecified)
inactive: [1] 6.25% | [2] -3.1% | [3] -9% | [4] -22.6% | [5] 1.3% | [6] -5.3%

CCCCCCCC/C=C\CCCCCCCC(=O)OCC(COP(=O)(Oc1ccccc1)N(CCCl)CCCl)OC(=O)CCCCCCC/C=C\CCCCCCCC (stereo unspecified)
inactive: [1] -2.95% | [2] 0.15% | [3] 12.1% | [4] -11.2% | [5] -9.45% | [6] 25.2%

C[n+]1cc(-c2ccccc2)cc2ccccc21
inactive: [1] 53.5% | [2] -2.3% | [3] 38.9% | [4] 16.1% | [5] 0.05% | [6] 24.4%

ICC1OOC1C1OOC1CI (stereo unspecified)
inactive: [1] 12.2% | [2] 7.4% | [3] -2.2% | [4] -1.25% | [5] -0.8% | [6] 15%

O=C1C2CCCCC1C(N1CCCC1)CC2 (stereo unspecified)
inactive: [1] 58.8% | [2] 6.75% | [3] 39.1% | [4] -4.35% | [5] 10.1% | [6] 34.3%

Cn1c([N+](=O)[O-])cnc1COC(=O)N(CCCl)CCCl
inactive: [1] 6.65% | [2] -38.9% | [3] 2.9% | [4] -6.8% | [5] -8.2% | [6] -18.5%

C[As](C)SC(C)(C)C(N)C(=O)O (stereo unspecified)
inactive: [1] 2.6% | [2] -0.15% | [3] -12.1% | [4] -11.1% | [5] -12.1% | [6] -18.9%

S=P(Cl)(Oc1ccccc1)c1ccccc1 (stereo unspecified)
inactive: [1] 16.9% | [2] 23.4% | [3] 6.85% | [4] 50% | [5] 27.3% | [6] 18.6%

CCCC/C=N\NC1=NC(C)(CCC2(C)N=C(N/N=C\CCCC)SP2(=O)Nc2ncccn2)P(=O)(Nc2ncccn2)S1 (stereo unspecified)
inactive: [1] -25.4% | [2] 22.4% | [3] 50.9% | [4] 38.5% | [5] 24.2% | [6] -30.1%

O=C(O)C1C[N+]12C=CC=CC2=O (stereo unspecified)
inactive: [1] 5.6% | [2] -4% | [3] 4.45% | [4] -58% | [5] 8.05% | [6] -7.5%

Cc1[nH]c2cc([N+](=O)[O-])c([N+](=O)[O-])cc2c1[N+](=O)[O-]
inactive: [1] 19.3% | [2] -11.8% | [3] 10.6% | [4] 19.6% | [5] -6.45% | [6] 4.3%

O=P(NO)(OCc1ccccc1)N(CCCl)CCCl (stereo unspecified)
inactive: [1] -10.3% | [2] 11.6% | [3] 3.3% | [4] -9.8% | [5] -3.65% | [6] -4.3%

CC1(C)COP(=O)(N(CCCl)CCCl)OC1
inactive: [1] 0% | [2] 8.3% | [3] -8.1% | [4] 11.7% | [5] -1.95% | [6] 6.15%

ClCCN1CC2CCCCC2C1 (stereo unspecified)
inactive: [1] -3.85% | [2] -17.1% | [3] -2.95% | [4] -14.2% | [5] 13.8% | [6] 15.4%

COc1ccc(C2N=C(NN=C(CCl)CCl)SP2(=O)Nc2ncccn2)c(OC)c1 (stereo unspecified)
inactive: [1] 14.2% | [2] -6.65% | [3] -6.5% | [4] -35.2% | [5] 17.2% | [6] 9.85%

Cc1cc(N(CCCl)CCCl)ccc1N
inactive: [1] -1.7% | [2] -11.7% | [3] -16.4% | [4] 14% | [5] -29.5% | [6] -14.2%

CN(C)[P]=[Fe] (stereo unspecified)
inactive: [1] -5.6% | [2] 6.65% | [3] 0.8% | [4] -31.8% | [5] 0.8% | [6] -1.4%

O=C1OCCN1P(=O)(Cl)N1CCOC1=O
inactive: [1] -1.9% | [2] -11.9% | [3] -15.6% | [4] 5.25% | [5] -4.7% | [6] -1.45%

CCN(CC)CC(O)c1cc2ccccc2c2ccccc12 (stereo unspecified)
inactive: [1] 17.9% | [2] 2.9% | [3] 15.2% | [4] 3.25% | [5] 0.1% | [6] 20.6%

S=P1(Oc2ccccc2)NNP2(=NP(Cl)(Cl)=NP(Cl)(Cl)=N2)NN1 (stereo unspecified)
inactive: [1] 7.4% | [2] -6% | [3] -27.3% | [4] -24.7% | [5] 3.3% | [6] -1.35%

ClCCN(CCCl)c1ccc(/C=N/c2nccs2)cc1
inactive: [1] 49.2% | [2] 16.1% | [3] 31.5% | [4] 13.3% | [5] -13.6% | [6] 24.6%

[O-]/[N+](=C/c1ccc(N(CCCl)CCCl)cc1)CCO
inactive: [1] 1.05% | [2] 22.1% | [3] -7.4% | [4] -1.25% | [5] 17.1% | [6] -4.95%

Cc1ccc(OP(=O)(Cl)Oc2ccc(C)cc2)cc1
inactive: [1] -10.4% | [2] -24.5% | [3] 0.35% | [4] 6.5% | [5] -9.4% | [6] 8.95%

O=[N+]([O-])c1ccc(SC2CCCCC2Cl)c([N+](=O)[O-])c1 (stereo unspecified)
inactive: [1] -5.2% | [2] -19.1% | [3] -19.9% | [4] -45.5% | [5] -5.15% | [6] 0.2%

CCCCP(Cl)CCCC
inactive: [1] 0.25% | [2] -14.6% | [3] -14.7% | [4] 9.8% | [5] 16.6% | [6] 5.2%

CCOP1(=O)N=C(NC#N)N(C)C1(C)C (stereo unspecified)
inactive: [1] -44.6% and -14.4% | [2] -63.8% and -0.25% | [3] -25.1% and -20.4% | [4] -10.9% and 16.1% | [5] 6.2% and 30.9% | [6] -29.7% and -28.9%
